Experiments:
NUGC-3 cells = assay: NUGC-3 cell proliferation assay (CTG)
Description: In order to detect the inhibitory effect of the aforementioned compounds on the proliferation ability of NUGC-3 cells, 250 NUGC-3 cells (Nanjing Cobioer Biosciences Co., Ltd., CBP60492) were seeded into a 384-well plate (Corning 3765), 35 μL per well, and incubated overnight in a constant temperature incubator at 37° C. and 5% CO2. Then, 40 nL of the compound was added to the 384-well plate using an Echo 655 Liquid Handler, with a maximum final concentration of 10 μM, 1:3 serial dilutions, and a total of 10 doses. The culture was performed at 37° C. and 5% CO2 for 6 days. The plate was taken out from the incubator and equilibrated at room temperature for 10 minutes. 20 μL of CTG (Promage G7572) was added to each well of the plate according to the platemap. The plate was centrifuged at 1000 rpm for 1 min. The lysis of cells was induced by mixing on a shaker for 2 min. The plate was centrifuged at 1000 rpm for 1 min. Incubation was performed at room temperature for 10 min to stabilize luminescence signals. Luminescence values were recorded by Envision (PerkinElmer 2105-0020). GraphPad 9.0 was used to fit the inhibition rate and compound concentration into a nonlinear regression curve (dose response-variable slope) to calculate GI50, inhibition rate={1−(A−B)/(C−B)}*100%, A=signal value of compound; B=average signal of blank control; C=average signal of negative control (wherein negative control was 0.1% DMSO).

BxPC-3 cells = assay: BxPC-3 cell proliferation test (CTG); conditions: 6 days
Description: To detect the inhibitory effects of the aforementioned compounds on the proliferation ability of BxPC-3 cells, 125 BxPC-3 cells (ATCC®CRL-1687) were seeded into a 384-well plate (Corning 3765), 35 μL per well, and placed in a constant temperature incubator at 37° C. and 5% CO2 overnight. Then, 40 nL of the compound was added to the 384-well plate using an Echo 655 Liquid Handler, with a maximum final concentration of 10 μM, 1:3 serial dilution, and in a total of 10 doses. Incubation was performed at 37° C., 5% CO2 for 6 days. The plate was taken out from the incubator and equilibrated at room temperature for 10 minutes. 20 μL of CTG (Promage G7572) was added to each well of the plate according to the platemap. The plate was centrifuged at 1000 rpm for 1 minute. The lysis of cells was induced by mixing on a shaker for 2 minutes. The plate was centrifuged at 1000 rpm for 1 minute. Incubation was performed at room temperature for 10 minutes to stabilize luminescence signals. Luminescence values were recorded by Envision (PerkinElmer 2105-0020). GraphPad 9.0 was used to fit the inhibition rate and compound concentration into a nonlinear regression curve (dose response-variable slope) to calculate GI50, inhibition rate={1−(A−B)/(C−B)}*100%, A=signal value of compound; B=average signal of blank control; C=average signal of negative control (wherein the negative control was 0.1% DMSO).

[1] = Liver microsome stability test, mouse (MLM); conditions: mouse liver microsomes, NADPH
Description: The 10 mM test compound/ketanserin (Energy Chemical, Cat. No. E020711) stock solution was diluted with acetonitrile to 0.5 mM compound/reference compound. The frozen 100 mM NADPH (MCE, Cat. No. HYF003/CS-4998) was diluted with phosphate buffer solution to a concentration of 6 mM; 20 mg/mL HLM (BioIVT, Cat. No. X008067) or MLM (BioIVT, Cat. No. M00501) was diluted with phosphate buffer solution to a concentration of 0.75 mg/ml, and added to a 96-round well plate, respectively, and shaken evenly on an oscillator at 600 rpm. The above oscillated samples were pipetted 3 times with an electric pipettor and dispensed into a new 96-well plate (containing NADPH group (n=2), NADPH-free group was added at 0 and 45 min (n=1)), and there were a total of 5 groups of 0, 5, 15, 30 and 45 min, respectively. […] The reaction was terminated by quickly adding glacial acetonitrile internal standard using an electric pipettor; after vortexing at 900 rpm for 10 seconds, heat sealing was performed, oscillation was performed on an oscillator for 10 minutes, centrifugation was performed at 4000 rpm for 50 minutes, the supernatant was collected and diluted with pure water, and the test compound and the reference compound were quantified by LC-MS/MS analysis.

In the case of `CNC(=O)c1ccc(NCC#Cc2cc3c(NC4CC[C@@H](N5CC6(COC6)C5)C[C@@H]4F)cccn3c2CC(F)(F)F)c(OC)c1` (single isomer, unassigned), the GI50 (NUGC-3 cells; 6 days, CTG) is reported as under 1000 nM, the “Compound GI50 (nM)/Reference compound GI50 (nM)” value (NUGC-3 cells; multiple ratio of GI50 of the compound to the reference compound) is reported as “A (A: GI50 of the compound ≤ GI50 of the reference compound)” and the GI50 (BxPC-3 cells) is reported as under 1000 nM. The “T1/2 (min) Mouse” value [1] was 11.2 min.

Reference: patent US20260132128A1, “COMPOUND FOR RECOVERING P53 MUTATION FUNCTION AND USE THEREOF” (SHENZHEN ZHONGGE BIOLOGICAL TECHNOLOGY CO., LTD., priority 2022, published 2026)
